Measured values published in patent US4339427A, “Radioimmunoassay of thymosinα” (Hoffmann-la Roche Inc., priority 1980, dated 1982).

Test system: rabbit anti-thymosin α1 antiserum
Assay: radioimmunoassay for thymosin α1 (inhibition of tracer binding / cross-reactivity, double antibody method)
Settings: Table 1; 125I-[Tyr1]-thymosin α1 tracer
Experimental: a. Preparation of antisera
Synthetic thymosin α1 was coupled to Keyhole Limpet Hemocyanin (KLH) by means of glutaraldehyde using the following procedure. Equivalent amounts (dry weight) of each protein, thymosin α1 and hemocyanin, were dissolved in 0.25 M NaPO4, pH 7.0 buffer at a concentration of 2 mg/ml. […] The reaction was allowed to continue for 3 hours while being stirred at room temperature. The reaction mixture was diluted in sterile saline to a final concentration of thymosin α1 of 100 μg/ml. The solution of coupled thymosin α1 was aliquoted and stored at -20° C.
The mixture of products resulting from the cross-linking reactions carried out at room temperature was not fractionated or purified in any way. The thymosin α1 KLH conjugate was diluted with sterile normal saline and stored frozen for immunizations. […]
Separation of free from bound tracer is carried out by the addition of goat anti-rabbit gamma globulin serum, incubation for 1 hour at 37° C. and finally incubation at 4° C. for 16 hours. The immunoprecipitate is pelleted by centrifugation at 2500 rpm for 20 minutes, the supernatant is aspirated and discarded, and the radioactivity in the immunoprecipitate is counted in an automatic gamma spectrometer. […]

Serum albumin (human): Serum albumin (human)
ED50 - Amount of protein (ng) required to produce a 50% inhibition in RIA: > 500,000 ng
